In US9169290B2, “Peptides and their use” (priority 2007, dated 2015):
Converted amounts (≈) assume the structure as drawn. Like-named read-outs stand apart in the source and are kept apart here.

What was measured:
C. albicans = format: cell-based, Candida albicans
Experimental: (§1) Broth Dilution Antifungal Susceptibility Testing
(§2) The sensitivity of relevant fungal strains to the peptides was determined using Clinical Laboratory Standard Institute (CLSI; formerly NCCLS) Approved Standards.

C. krusei = format: cell-based, Candida krusei
Experimental: as §1, §2

Malasezzia furfur = format: cell-based; conditions: Malasezzia furfur strain DSM6170
Experimental: as §1, §2

Trichophyton rubrum = format: cell-based; conditions: Trichophyton rubrum strain NCPF118
Experimental: as §1, §2

MIC, Candida albicans NCTC3179 (C. albicans; Candida spp. Type Strains MIC Data table, strain NCTC3179) [µM]	MIC (C. krusei; C. krusei strain ATCC6258) [µM]	MIC (C. krusei; C. krusei strain NCPF3953) [µM]	MIC, Candida krusei NCPF3953 (C. krusei; Candida spp. Type Strains MIC Data table, strain NCPF3953) [µM]	MIC (Malasezzia furfur) [µM]	MIC (Trichophyton rubrum) [µM]	MIC (C. albicans; C. albicans strain NCTC3179) [µM]	Compound
>2000	<16	32 (≈ 45.6 µg/mL)	8 (≈ 11.4 µg/mL)	125 (≈ 178 µg/mL)	0.5 (≈ 0.712 µg/mL)	–	N=C(N)NCCC[C@H](NC(=O)[C@H](CCCNC(=N)N)NC(=O)[C@H](CCCNC(=N)N)NC(=O)[C@H](CCCNC(=N)N)NC(=O)[C@H](CCCNC(=N)N)NC(=O)[C@H](CCCNC(=N)N)NC(=O)[C@H](CCCNC(=N)N)NC(=O)[C@H](CCCNC(=N)N)NC(=O)[C@@H](N)CCCNC(=N)N)C(=O)O [NP316, RRRRRRRRR]
–	–	8 (≈ 11.4 µg/mL)	–	–	–	2048 (≈ 2920 µg/mL)	N=C(N)NCCC[C@H](NC(=O)[C@H](CCCNC(=N)N)NC(=O)[C@H](CCCNC(=N)N)NC(=O)[C@H](CCCNC(=N)N)NC(=O)[C@H](CCCNC(=N)N)NC(=O)[C@H](CCCNC(=N)N)NC(=O)[C@H](CCCNC(=N)N)NC(=O)[C@H](CCCNC(=N)N)NC(=O)[C@@H](N)CCCNC(=N)N)C(=O)O [NP349, RRRRRRRRR]
